Consider five compounds from PubChem BioAssay (NCATS).

Sequences of proteins named here, by UniProt entry; tags and fusion partners are left off.
UniProt Q07343, whole entry: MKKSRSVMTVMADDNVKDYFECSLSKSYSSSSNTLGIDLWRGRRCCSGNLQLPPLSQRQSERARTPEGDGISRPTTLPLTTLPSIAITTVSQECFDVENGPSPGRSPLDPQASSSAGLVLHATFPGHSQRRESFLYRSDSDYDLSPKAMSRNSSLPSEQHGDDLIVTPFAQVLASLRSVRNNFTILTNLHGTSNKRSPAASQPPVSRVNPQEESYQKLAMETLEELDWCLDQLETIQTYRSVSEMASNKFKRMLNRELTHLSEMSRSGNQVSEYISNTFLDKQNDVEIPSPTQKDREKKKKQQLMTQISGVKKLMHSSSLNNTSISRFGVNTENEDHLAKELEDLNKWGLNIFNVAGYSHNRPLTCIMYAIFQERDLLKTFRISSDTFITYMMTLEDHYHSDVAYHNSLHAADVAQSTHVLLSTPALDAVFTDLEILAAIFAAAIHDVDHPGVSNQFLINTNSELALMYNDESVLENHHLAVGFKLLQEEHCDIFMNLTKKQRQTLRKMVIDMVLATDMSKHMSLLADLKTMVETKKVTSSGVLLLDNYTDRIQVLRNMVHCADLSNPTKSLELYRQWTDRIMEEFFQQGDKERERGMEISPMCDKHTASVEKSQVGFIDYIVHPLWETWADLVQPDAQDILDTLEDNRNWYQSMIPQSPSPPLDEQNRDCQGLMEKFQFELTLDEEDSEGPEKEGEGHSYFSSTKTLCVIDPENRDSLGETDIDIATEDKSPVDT
UniProt O94782, whole entry, looked up: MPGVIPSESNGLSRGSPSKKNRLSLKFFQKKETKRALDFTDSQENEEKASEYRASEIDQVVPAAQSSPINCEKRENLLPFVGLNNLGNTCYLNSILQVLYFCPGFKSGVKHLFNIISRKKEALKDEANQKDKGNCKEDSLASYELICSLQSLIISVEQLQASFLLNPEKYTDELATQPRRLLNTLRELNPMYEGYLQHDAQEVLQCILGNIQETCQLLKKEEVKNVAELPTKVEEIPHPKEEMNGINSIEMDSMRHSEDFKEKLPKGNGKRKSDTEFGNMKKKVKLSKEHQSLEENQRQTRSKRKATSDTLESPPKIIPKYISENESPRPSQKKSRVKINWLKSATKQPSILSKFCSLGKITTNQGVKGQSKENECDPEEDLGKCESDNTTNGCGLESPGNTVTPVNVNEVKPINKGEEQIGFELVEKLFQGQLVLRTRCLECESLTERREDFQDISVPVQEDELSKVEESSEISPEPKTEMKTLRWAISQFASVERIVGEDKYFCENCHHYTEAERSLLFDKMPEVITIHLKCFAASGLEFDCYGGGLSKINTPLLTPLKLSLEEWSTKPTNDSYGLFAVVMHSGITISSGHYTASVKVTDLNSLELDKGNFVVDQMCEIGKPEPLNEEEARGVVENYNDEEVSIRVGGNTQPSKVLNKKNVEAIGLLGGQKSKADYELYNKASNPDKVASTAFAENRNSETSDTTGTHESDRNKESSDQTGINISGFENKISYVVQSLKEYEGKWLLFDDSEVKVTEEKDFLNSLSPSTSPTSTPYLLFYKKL
UniProt P08659, whole entry: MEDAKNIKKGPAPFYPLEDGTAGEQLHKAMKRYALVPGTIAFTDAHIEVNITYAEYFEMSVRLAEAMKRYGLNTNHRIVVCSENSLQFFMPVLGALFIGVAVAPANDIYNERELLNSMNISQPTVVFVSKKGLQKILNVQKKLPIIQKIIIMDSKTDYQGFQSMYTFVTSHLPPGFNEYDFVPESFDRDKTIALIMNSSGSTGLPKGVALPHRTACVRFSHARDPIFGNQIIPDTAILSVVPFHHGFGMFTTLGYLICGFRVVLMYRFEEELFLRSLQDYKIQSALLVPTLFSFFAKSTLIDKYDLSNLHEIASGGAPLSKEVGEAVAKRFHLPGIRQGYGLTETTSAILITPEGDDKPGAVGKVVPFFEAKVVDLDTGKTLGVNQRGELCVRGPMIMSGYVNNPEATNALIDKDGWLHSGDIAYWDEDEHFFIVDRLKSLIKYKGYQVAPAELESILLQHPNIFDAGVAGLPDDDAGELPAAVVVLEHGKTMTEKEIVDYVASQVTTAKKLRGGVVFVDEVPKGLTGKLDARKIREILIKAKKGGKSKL
UniProt Q99828, whole entry: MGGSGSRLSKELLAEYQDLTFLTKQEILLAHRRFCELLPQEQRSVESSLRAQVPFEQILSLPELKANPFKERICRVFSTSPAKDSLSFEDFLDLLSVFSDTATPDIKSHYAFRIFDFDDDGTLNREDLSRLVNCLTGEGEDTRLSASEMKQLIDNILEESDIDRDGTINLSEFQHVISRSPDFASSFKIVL

The nature of experiment [1]: AP1 Signaling Pathway (AID 357; active = well fitted curve in either direction with a large enough effect, not every such curve was filed as active;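 also: ME-180 reporter cells stimulated with EGF at its EC50 level; % is scaled to controls: 0 for no effect and ±100 for the full control effect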). Conditions: ME-180 AP-1-bla reporter, EGF-induced, beta-lactamase ratio, 5 h; at 7.69 µM (top of the series). A digest of the protocol: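 A ratiometric CCF4 readout (405 nm excitation; 460 and 530 nm emission) quantified AP-1-driven beta-lactamase in ME-180 cells after 5 h with compound and EC50 EGF; AC50 values were derived for activators and inhibitors.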

Experiment [2] in a line: Stat Signaling Pathway (AID 446; active = well fitted curve in either direction with a large enough effect, not every such curve was filed as active;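 also: ME-180 cervical cancer cells given 40 pM IL-6 alongside compound; SIE-controlled beta-lactamase reporter measured as 460/530 nm FRET emission ratio; % is scaled to controls: 0 for no effect and ±100 for the full control effect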). To be noted: ME-180 SIE beta-lactamase reporter, IL-6 stimulated, 5 h; at 7.69 µM (top of the series). An outline of the steps:
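Screening format detects activators and inhibitors alike: ME-180 SIE-bla cells stimulated at 40 pM IL-6 for 5 hrs with compound, then dual-emission beta-lactamase read at 405 nm excitation.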

The target of experiment [3] is Mitogen-activated protein kinase 10 (Mus musculus) (UniProt Q61831). The experiment is described as follows: JNK3 AlphaScreen Assay (AID 530; active = well fitted curve in either direction with a large enough effect, not every such curve was filed as active;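 also: kinase came from lysate of stimulated human HepG2 cells; signal reports phosphorylation of biotinylated GST-cJun 1-79 at Ser73 with 10 µM ATP; % is scaled to controls: 0 for no effect and ±100 for the full control effect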). Conditions: JNK3 lysate, c-Jun phosphorylation; at 11.4 µM (top of the series). An outline of the steps:
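Pre-activated (IL-1β/TNFα) JNK3 in HepG2 lysates phosphorylates biotin-GST-cJun(1-79), 10 uM ATP; anti-phospho-cJun(Ser73) AlphaScreen read at room temperature, pH 7.6 Tris buffer. Compounds pre-incubated 15 min as titrations.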

In experiment [4] the target is 3',5'-cyclic-AMP phosphodiesterase 4B (Homo sapiens) (UniProt Q07343). The experiment is described as follows: qHTS Assay for Inhibitors of PDE-IV (AID 607; active = well fitted activation curve with a large enough effect in the main read-out, with a control signal flat, not every such curve was filed as active; also: % of control where 0% means no effect). Conditions: HEK293 ACTOne CNG channel cells, membrane potential fluorescence; at 22.9 µM (top of the series). A digest of the protocol: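 The readout is membrane depolarisation from a cAMP-sensing CNG channel, detected with a potential dye at ex 535/em 590. Cells were HEK293-derived (endogenous PDE-IV) at 1000 cells/well, titrated up to 22.9 uM final.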

Experiment [5] deals with Ubiquitin carboxyl-terminal hydrolase 1 (Homo sapiens) (UniProt O94782). In words: Inhibitors of USP1/UAF1: Pilot qHTS (AID 504865).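 Also: rhodamine fluorescence freed from ubiquitin-rhodamine substrate followed over time; top concentration of the series differs between compounds; % is scaled to controls: 0 for no effect and ±100 for the full control effect; nearly all actives have a fitted effect of over 35% in size.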 To be noted: purified USP1/UAF1, Ub-rhodamine cleavage fluorescence; at 114 µM (top of the series).
Experiment [6] deals with Luciferin 4-monooxygenase (Photinus pyralis) (UniProt P08659). The experiment is described as follows: Biochemical firefly luciferase enzyme assay for NPC (AID 624030).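 Also: purified P. pyralis luciferase at 10 nM with luciferin and ATP substrate; 0% = DMSO and -100% = full luciferase inhibition by PTC124 control; nearly all actives have a fitted effect of over 70% in size.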 To be noted: purified P. pyralis luciferase, luminescence, 5 min; at 58.6 µM (top of the series). An outline of the steps: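 Purified P. pyralis luciferase at 10 nM in 50 mM Tris Acetate (final), luminescence read within 5 minutes of enzyme addition to compounds. Activity normalised to PTC124 versus DMSO; concentration-response curves classed by r2, magnitude and activity.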

Experiment [7] is described as follows: S16 Schwann cell viability assay (CellTiter-Glo assay) (AID 624031).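 Also: native untransfected S16 rat Schwann cells; cellular ATP luminescence as a viability measure; plate controls were DMSO-treated cells for no effect and cell-free wells for full effect; nearly all actives have a fitted effect of over 70% in size.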 To be noted: S16 rat Schwann cells viability, 24 h; at 57.5 µM (top of the series). A digest of the protocol:
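Concentration-effect curves come from CellTiter-Glo luminescence of S16 rat Schwann cells after 24 h compound exposure. Each reading was normalized to DMSO wells (0%) and wells without cells, and curves were ranked by r2 and response magnitude.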

Experiment [8] in a line: S16 Schwann cell PMP22 intronic element firefly luciferase assay (AID 624032).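 Also: plate controls were DMSO for no effect and PTC124 positive control mean for full effect; nearly all actives have a fitted effect of over 30% in size.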 Conditions: S16 rat Schwann cells, PMP22 element FLuc, 24 h; at 57.5 µM (top of the series).
Experiment [9] is described as follows: qHTS Assay for Identifying Gametocytocidal Compounds (AID 743244).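 Also: % is scaled to controls: 0 for no effect and ±100 for the full control effect; actives lower the fluorescent signal which means gametocytes are killed.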 Conditions: P. falciparum 3D7 stage III-V gametocytes, alamarBlue, 72 h; stronger effect = lower value.
Experiment [10] can be described thus: qHTS assay to identify small molecule inhibitors of chordoma cells - UCH-2 (AID 1259356). Also: % is scaled to controls: 0 for no effect and ±100 for the full control effect. Conditions: UCH-2 chordoma viability, CellTiter-Glo ATP luminescence, 48 h; at 46.1 µM (top of the series).
Experiment [11] is described as follows: P-glycoprotein substrates identified in KB-8-5-11 adenocarcinoma cell line, qHTS therapeutic library screen (AID 1346987). Also: % is scaled to controls: 0 for no effect and ±100 for the full control effect; nearly all actives have a fitted effect of over 65% in size. To be noted: KB-8-5-11 (P-gp overexpressing) viability, CellTiter-Glo, 72 h; at 44.5 µM (top of the series). An outline of the steps: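 Steps: plate 500 KB-8-5-11 cells/well in DMEM + 10% FCS (colchicine removed); pin compounds in dose-response; incubate 72 h, 37 degree C, 5% CO2; add CellTiter-Glo, 5 min; read luminescence.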

The subject of the next experiment is KB-3-1. In words: Cytotoxic Profiling of Annotated Libraries Using Quantitative High-Throughput Screening (AID 1296008). Also: % is scaled to controls: 0 for no effect and ±100 for the full control effect; nearly all actives have a fitted effect of over 60% in size. Conditions: Five cell lines viability, CellTiter-Glo ATP luminescence, 48-72 h, stronger effect = lower value. A digest of the protocol: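 Cells exposed to compounds for 48 or 72 hr at 37 degrees Celsius. Viability read as ATP-coupled luminescence with CellTiter-Glo after 10 min at room temperature.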

The next experiment has as its system astro. In words: Drug repurposing screens with cells derived from glioblastoma tumor samples (AID 1345199). Also: % is scaled to controls: 0 for no effect and ±100 for the full control effect; nearly all actives have a fitted effect of over 40% in size. Conditions: viability, ATP luminescence, 48 h; at 45.9 µM (top of the series). A digest of the protocol: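 Four patient lines of CD133+ GBM neurospheres were screened at several concentrations; hits were retested in those lines plus three slower-growing GBM lines, using 48-hour treatment and ATP-based viability.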

The target in experiment [12] is Calcium and integrin-binding protein 1 (Homo sapiens) (UniProt Q99828). In words: Primary qHTS for Identification of Calcium Integrin Binding Protein 1 (CIB1) Competitor (AID 1508620). Conditions: CIB1-GST / FITC-alphaIIb peptide fluorescence polarization; at 114 µM (top of the series). A digest of the protocol: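 Fluorescence polarization competition: GST-tagged CIB1 (1 uM final) preincubated with compound 15 min at room temperature, then FITC-labelled alphaIIb peptide (100 nM final) added. After 15 min at room temperature, polarization read at Ex 480/Em 540.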

Experiment [13] can be described thus: NFAT Signaling Pathway (AID 444; active = well fitted curve in either direction with a large enough effect, not every such curve was filed as active). Conditions: Jurkat NFAT-bla M1, carbachol, beta-lactamase ratio, 5 h; at 7.69 µM (top of the series). A digest of the protocol:
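Jurkat cells with NFAT-driven β-lactamase reporter and co-expressed M1 receptor, stimulated with carbachol (final 1 uM, ~EC50), compound titration, 5 h at 37 °C. CCF4 loaded 1 h at RT; 460/530 nm ratio gave %activity and AC50.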

Experiment [14] is described as follows: qHTS Assay for Identification of Small Molecule Agonists for Hypoxia Response Element Signaling Pathway (AID 914; active = well fitted activation curve with a large enough effect in the signal ratio, with a control signal flat, not every such curve was filed as active; the % refers to the signal ratio; also: % of control where 0% means no effect). Conditions: ME-180 (cervical carcinoma) HRE-bla reporter, beta-lactamase ratio, CoCl2, 17 h; stronger effect = higher value.

This is a selection; strong and weak results do not stand in their true shares. Some tests of the compounds listed are not included; inactive here does not mean inactive elsewhere. Inconclusive results are not listed. Calls of active or inactive are those of the source. Unless noted, calls follow the shape of the dose curve; as a rule, active = well fitted curve in the direction sought with a large enough effect; inconclusive = small, poorly fitted or top-dose-only effect, or another doubt; inactive = no such curve, though single readings can be large; an effect the other way counts as inactive or inconclusive.

Consider `CN1CCC[C@H](OC(=O)[C@](O)(c2ccccc2)C2CCCC2)C1`, for which the activity change, negative = inhibition in experiment [1] was inactive: -0.382%; in [3] it was inactive: 1.6%. The activity, negative = inhibition in [2] is inactive: 9.02%. In addition, the activation (PDE inhibition) in experiment [4] was inactive: 6.14%.
In the case of `CN1CCCC(OC(=O)C(O)(c2ccccc2)c2ccccc2)C1` (stereo not given), the activity change, negative = inhibition is inactive: -8.41% in experiment [5], inactive: 2.21% in [6], inactive: 13.2% in experiment [8] and inactive: -24.5% in [10]. The values for the activity change, negative = cytotoxicity in experiment [7] and in experiment [11] were inactive: -29.1% and inactive: 0.979%, respectively. In addition, the max response in experiment [9] is inactive: 16.4%; with KB-3-1 it was inactive: -0.336%. Further, the activity, negative = cell killing in the experiment on astro is inactive: 0.657%.
Take `O=C(C1CCC1)N1CCN(C/C=C/c2ccccc2)CC1`: the activity change, negative = inhibition in experiment [12] is inactive: -1.88%.
Regarding `CN1CC[C@H](OC(=O)[C@](O)(c2ccccc2)C2CCCC2)C1`, the activity change, negative = inhibition was inactive: -3.01% in [1], active: -80.9% in experiment [13] and inactive: 3.18% in experiment [3]. In addition, the activity, negative = inhibition in [2] is inactive: 12.1%. Also, the activation (PDE inhibition) in experiment [4] was inactive: 1.08%. In addition, the activation in experiment [14] is inactive: 14.9%.
Regarding `C=C(C)C#C[C@@](O)(C(=O)OC1CCN(C)CC1)c1ccccc1`, the results for the activity change, negative = inhibition in [1] and in experiment [3] were inactive: -3.83% and inactive: 2.03%, respectively. For the same compound, the activity, negative = inhibition in experiment [2] is inactive: -1.24%. For the same compound, the activation (PDE inhibition) in [4] is inactive: 1.58%. Besides, the activation in experiment [14] was inactive: 8.7%.
